Values joined by “and” are separate entries in the source; they are usually repeats but may differ in a detail not shown here. Equal entries are not always repeated. Where two headings read alike, the source gives them in different places. Marks after values point to notes of the source that are not given here.
What was measured:
[1] = not given; remark: listed apart in the source
[2] = analyte intact prodrug, oral 0.5 mg buprenorphine free base equivalents/kg, mean of 5 dogs
[3] = plasma buprenorphine, oral, dogs

In the case of `CO[C@]12CC[C@@]3(C[C@@H]1[C@@](C)(O)C(C)(C)C)[C@H]1Cc4ccc(OC(=O)N[C@@H](C(=O)O)C(C)C)c5c4[C@@]3(CCN1CC1CC1)C2O5` (some centres unmarked), the “circulating plasma prodrug concentrations exceeding those of the parent drug” value (after oral prodrug, dogs) is reported as 100 fold, the “Buprenorphine valine carbamate t½” value (analyte intact prodrug, oral 0.5 mg buprenorphine free base equivalents/kg, calculated as ln2/mean k) is reported as 4.8^b h and the “Buprenorphine valine carbamate Tmax” value (analyte intact prodrug, oral 0.5 mg buprenorphine free base equivalents/kg, individual dogs 1-5) is reported as 1 h (4×) and 2 h. For the same compound, the “Buprenorphine valine carbamate AUC24” value [2] was 2500 ng·h/mL, the “Buprenorphine valine carbamate AUCt” value [2] was 2360 ng·h/mL and the “Buprenorphine valine carbamate Cmax” value [2] was 293 ng/mL. For the same compound, the “Buprenorphine valine carbamate Tmax” value (analyte intact prodrug, oral 0.5 mg buprenorphine free base equivalents/kg, median value) was 1^a h, the “AUC (mean ngh/mL ± SD)” value (plasma buprenorphine, 0.5 mg buprenorphine free base/kg, group1 dogs) was 23.2 ± 11.3 ngh/mL and the “overall mean exposure (AUC) relative to parent drug” value [3] was “seven to nine fold greater”. For the same compound, the “period for which plasma drug concentrations remained above 50% of the Cmax values” [3] was 5.0 h, the “Distilled water (pH 5.9): % remaining after 2h/20° C.” value ([1]; distilled water pH 5.9, 2 h, 20° C.) was 100% and the “pH 10.0 buffer: % remaining after 2 h/20° C.” value ([1]; pH 10.0 buffer, 2 h, 20° C.) was 74%. For the same compound, the “Simulated gastric fluid (pH 1.1): % remaining after 2 h/37° C.” value ([1]; simulated gastric fluid pH 1.1, 2 h, 37° C.) was 100% and the “Simulated intestinal fluid (pH 6.8): % remaining after 2 h/37° C.” value ([1]; simulated intestinal fluid pH 6.8, 2 h, 37° C.) was 98%.
